The values below come from PubChem BioAssay (EPA / NIEHS).

The entries are a selection whose mix differs from that of the whole data set. Active and inactive are the calls of the source. How the source made its calls: active means hit-call score of the fitted dose curve at least 0.9, where 1 is the maximum; inactive means score below 0.9.

A short description of the test: ATG_PPRE_CIS: Attagene CIS-FACTORIAL HepG2 Assay for human Peroxisome Proliferator-activated Response Element (PPRE) (AID 2282958). The settings on record: HepG2 PPRE cis-element reporter, Attagene transcription factor profiling; actives raise or lower the signal.
On to `S=C([S-])NCCNC(=S)[S-].[Mn+2]`, for which the outcome was inactive.

For the molecule `COC(C)CCO` (centres undefined), the molecule was called inactive. As for `Cc1ccncc1`, the molecule was classed as inactive. `CC(=O)O[C@@H]1C[C@@H]2CC[C@@]1(C)C2(C)C`: the outcome was inactive. For the molecule `C/C=C(\C)C(=O)OCc1ccccc1`, the result was inactive.

Take `CCCCOCCOC(=O)COc1ccc(Cl)cc1Cl`: the result was inactive. Turning to `Nc1ccc(Nc2ccccc2)cc1`, the molecule was called inactive. `CC(C)=CCCC(C)=CC#N`: the outcome was inactive. Regarding `CCOc1ccc(NC(C)=O)cc1`, the outcome was inactive. Take `O=C1c2cccc(O)c2C(=O)c2c(O)cc(CO)cc21`: the molecule was called inactive. Take `O=c1ccc2ccccc2o1`: the call was inactive.

With `CCCCCCCCCCO`, the result was inactive. On the same count and under the same terms, the value for `CC1(C)CC(N=C=O)CC(C)(CN=C=O)C1` (centres undefined) was “inactive”. Same read-out and setting: the result for `CC(C)(O)c1coc(S(=O)(=O)NC(=O)Nc2c3c(cc4c2CCC4)CCC3)c1` reads “inactive”; that for `CN(C)C(=O)Nc1ccc(Oc2ccc(Cl)cc2)cc1`, “inactive”. For `CCCCCC=CCC(=O)OC`, the molecule was called inactive. As to `CN(Cc1cnc2nc(N)nc(N)c2n1)c1ccc(C(=O)N[C@@H](CCC(=O)O)C(=O)O)cc1`, the call was inactive. Consider `C=CC(C)(CCC=C(C)C)OC(=O)CC` (centres undefined), for which the result was inactive. `O=C1CCCCCCCCCCC(=O)OCCO1`: the call was inactive. On the same count and under the same terms, the result for `C[C@H](CCC(=O)NCC(=O)O)[C@H]1CC[C@H]2[C@@H]3[C@H](O)C[C@@H]4C[C@H](O)CC[C@]4(C)[C@H]3C[C@H](O)[C@]12C` reads “inactive”; that for `CC(C)=CCC/C(C)=C\C#N`, “inactive”; that for `O=C(Nc1ccc2c(O)c(N=Nc3ccc(N=Nc4ccc(S(=O)(=O)O)cc4)cc3)c(S(=O)(=O)O)cc2c1)c1ccccc1`, “inactive”. In the case of `CCCCCCO`, the molecule was classed as inactive.

Take `O=C(C=Cc1ccccc1)OCCc1ccccc1`: the outcome was inactive. For `OC[C@@H](O)[C@H](O)[C@@H](O)[C@@H](O)CO`, the outcome was inactive. On the same count and under the same terms, the value for `C=CC(=O)NC(C)(C)C` was “inactive”; that for `COc1c2ccoc2cc2oc(=O)ccc12` was “inactive”; that for `O=C1OC(=O)c2cc(Oc3ccc4c(c3)C(=O)OC4=O)ccc21` was “inactive”. Take `CC(=O)O[C@H]1C[C@@H]2CC[C@@]1(C)C2(C)C`: the outcome was inactive. As for `C=C1CC/C=C(\C)CC[C@@H]2[C@@H]1CC2(C)C`, the AC50 is active: 131 µM.

As to `CCCCN(CCO)CCO`, the result was inactive. Regarding `OCC#CCO`, the outcome was inactive. Take `C=CC(=O)OCCCCCCCCCC`: the molecule was called inactive. Regarding `O=C(Nc1ccc2c(c1)Cc1ccccc1-2)C(F)(F)F`, the call was inactive. For the molecule `COCc1nnc(-c2ccc[n+]([O-])c2)n1-c1c(Cl)c(Cl)cc2[nH]c(=O)c(=O)[nH]c12`, the molecule was called inactive. As to `CCCCCC(=O)OCC`, the molecule was called inactive.

As for `CC(C)(CO)[N+](=O)[O-]`, the outcome was inactive. For the molecule `NCCOCCOCCN`, the molecule was classed as inactive. Still for that read-out and setting: the result for `Cc1c(Cl)cccc1Cl` reads “inactive”.

The AC50 is the midpoint of the concentration-response curve, whichever way the signal moves.
